Measured values reported in US8847000B2 (priority 2006, dated 2014).

Experiments:
mouse = settings: cited from earlier work; for LD50: 50% of the fatal dose in mouse
cell proliferation = settings: read-out: IC50 value; 24 h, 37° C.; cytotoxicity, inhibition of cell growth

## arsenocholine
mouse
  LD50: 6,000 mg/kg

## arsenobetaine
mouse
  LD50: 10,000 mg/kg
  Acute toxicity value: LD50: 10000 mg/kg

## monomethyl arsonic acid
mouse
  LD50: 1,800 mg/kg
Cell proliferation
  IC50: > 6000 µM

## trimethylarsineoxide
mouse
  LD50: 10,600 mg/kg
  Acute toxicity value: LD50: 10600 mg/kg

## Arsenic acid
Cell proliferation
  IC50: 100 µM
